Experimental data from patent US20050164945A1 (published 2005).

T1: recombinant endotheliase 1 (human, UniProt Q9UL52 192-423, limits assumed)
T1 construct: also called ET1; rET1
T1 sequence: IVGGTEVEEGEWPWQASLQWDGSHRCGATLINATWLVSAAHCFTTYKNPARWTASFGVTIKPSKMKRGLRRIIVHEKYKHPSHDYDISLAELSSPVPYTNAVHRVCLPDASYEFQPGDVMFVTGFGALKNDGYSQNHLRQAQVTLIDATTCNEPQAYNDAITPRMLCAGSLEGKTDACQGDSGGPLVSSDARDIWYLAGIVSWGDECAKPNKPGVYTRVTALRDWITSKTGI


What was measured:
[1] = molecular target: T1, recombinant endotheliase 1; test: apparent Ki, inhibition of ET1, uncorrected for substrate
[2] = molecular target: T1, recombinant endotheliase 1; test: inhibition of ET1 activity
[3] = molecular target: T1, recombinant endotheliase 1; test: inhibition of ET1 activity; remark: listed apart in the source

| Binder | Ki [1] | also measured |
| --- | --- | --- |
| AGKHICRGYYPDCVWQTFGT [DX-1647] | 12.7 nM |  |
| AGKHICRGFYPDCVWQTFGT [DX-1649] | 22.1 nM |  |
| AGRAGWRCKGYYPDCGYPGT [DX-1642] | 11.6 nM |  |
| AGSSGWRCKGYYPDCGYPGT [DX-1644] | 8.6 nM |  |
| AGKMRCISRDIPCTVKSGGTY [DX-1632] | 15.8 nM |  |
| AGQLGWKCKGYYPDCGYPGT [DX-1643] | 25.6 nM |  |
| AGKMRCLSRDLPCVTHGTY (synthetic peptide) [DX-1106] |  | Ki [2]: 73.6 nM |
| AGSGRRFCISRDIPCVTHGT [DX-1630] | 128 nM |  |
| AGMARVKCISRDIPCVTHGTY [DX-1631] | 13.1 nM |  |
| AGHWQCKGYAPDCEPWGT (synthetic peptide) [DX-1104] |  | Ki [3]: 126 nM |

Second part, led by results:

| Ki [1] | Binder | also measured |
| --- | --- | --- |
| 15.6 nM | AGKHICRGFYPDCVWQTWGT [DX-1645] |  |
| 26.4 nM | AGKMRCLSRDIPCSIHQKGTY [DX-1633] |  |
| 34.6 nM | AGRETWVCKGYYPDCGYPGT [DX-1641] |  |
| 28 nM | AGNTGWRCKGYYPDCGYPGT [DX-1639] |  |
| 29 nM | AGRASWRCKGYYPDCGYPGT [DX-1640] |  |
| 19.8 nM | AGKHICRGYYPDCIWQFAGT [DX-1648] |  |
| 8.5 nM | AGKMRCISRDIPCTVFQEGT [DX-1635] |  |
| 19.3 nM | AGKMRCLSRDIPCVNFRLGT [DX-1634] |  |
| 11.3 nM | AGKMRCISRDIPCTTRVAGTY [DX-1636] |  |
| 126 nM | AGGWRYPCKGFYPDCGYPGT [DX-1638] |  |
